According to paper PMC3543382:

Target: T1, IκB-EYFP (human), P25963
T1 chain: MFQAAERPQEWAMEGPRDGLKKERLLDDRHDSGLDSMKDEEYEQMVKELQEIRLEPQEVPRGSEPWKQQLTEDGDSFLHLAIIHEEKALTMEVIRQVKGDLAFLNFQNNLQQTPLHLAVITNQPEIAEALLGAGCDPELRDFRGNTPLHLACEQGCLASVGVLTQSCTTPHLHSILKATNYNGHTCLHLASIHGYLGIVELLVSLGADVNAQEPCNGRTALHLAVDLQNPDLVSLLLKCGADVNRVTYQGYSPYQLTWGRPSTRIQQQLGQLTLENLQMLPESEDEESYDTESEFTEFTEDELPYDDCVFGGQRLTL
Assay: FRET or BRET; sensitised-emission FRET between ECFP (donor) and EYFP/YFP (acceptor) fusion proteins co-expressed in living Arabidopsis thaliana mesophyll protoplasts; confocal laser scanning microscopy, excitation 458 nm and 514 nm
Details: remark: other sources report otherwise

B1: RelA-ECFP, Q04206 1-551 (natural protein)
chain: MDELFPLIFPAEPAQASGPYVEIIEQPKQRGMRFRYKCEGRSAGSIPGERSTDTTKTHPTIKINGYTGPGTVRISLVTKDPPHRPHPHELVGKDCRDGFYEAELCPDRCIHSFQNLGIQCVKKRDLEQAISQRIQTNNNPFQVPIEEQRGDYDLNAVRLCFQVTVRDPSGRPLRLPPVLSHPIFDNRAPNTAELKICRVNRNSGSCLGGDEIFLLCDKVQKEDIEVYFTGPGWEARGSFSQADVHRQVAIVFRTPPYADPSLQAPVRVSMQLRRPSDRELSEPMEFQYLPDTDDRHRIEEKRKRTYETFKSIMKKSPFSGPTDPRPPPRRIAVPSRSSASVPKPAPQPYPFTSSLSTINYDEFPTMVFPSGQISQASALAPAPPQVLPQAPAPAPAPAMVSALAQAPAPVPVLAPGPPQAVAPPAPKPTQAGEGTLSEALLQLQFDDEDLGALLGNSTDPAVFTDLASVDNSEFQQLLNQGIPVAPHTTEPMLMEYPEAITRLVTGAQRPPDPAPAPLGAPGLPNGLLSGDEDFSSIADMDFSALLSQISS
FRET-efficiency: 0.19
